Activity calls are given as the source filed them.
Tests used:
Type in all cases: functional, organism-based
Rattus norvegicus [1] = test: Antidiabetic activity in high fat diet/streptozotocin induced diabetic male Albino rat model assessed as decrease in ALT level at 2 mg/kg, po administered for 4 weeks by colorimetric assay
Rattus norvegicus [2] = test: Antidiabetic activity in high fat diet/streptozotocin induced diabetic male Albino rat model assessed as decrease in AST level at 2 mg/kg, po administered for 4 weeks by colorimetric assay
Rattus norvegicus [3] = test: Antidiabetic activity in high fat diet/streptozotocin induced diabetic male Albino rat model assessed as decrease in creatinine level at 2 mg/kg, po administered for 4 weeks by colorimetric assay
Rattus norvegicus [4] = test: Antidiabetic activity in high fat diet/streptozotocin induced diabetic male Albino rat model assessed as decrease in urea level at 2 mg/kg, po administered for 4 weeks by colorimetric assay
Rattus norvegicus [5] = test: Antiinflammatory activity in high fat diet/streptozotocin induced diabetic male Albino rat model assessed as reduction in NF-kappaB level in serum at 2 mg/kg, po using self assembled nanoparticle as source of compound administered for 4 weeks by ELISA analysis
Rattus norvegicus [6] = test: Antiinflammatory activity in high fat diet/streptozotocin induced diabetic male Albino rat model assessed as reduction in NF-kappaB level in serum at 2 mg/kg, po administered for 4 weeks by ELISA analysis
Rattus norvegicus [7] = test: Antiinflammatory activity in high fat diet/streptozotocin induced diabetic male Albino rat model assessed as reduction in TNF-alpha level in serum at 2 mg/kg, po administered for 4 weeks by ELISA analysis
Rattus norvegicus [8] = test: Antiinflammatory activity in high fat diet/streptozotocin induced diabetic male Albino rat model assessed as reduction in IL-1beta level in serum at 2 mg/kg, po administered for 4 weeks by ELISA analysis
Rattus norvegicus [9] = test: Antiinflammatory activity in high fat diet/streptozotocin induced diabetic male Albino rat model assessed as reduction in IL-6 level in serum at 2 mg/kg, po administered for 4 weeks by ELISA analysis
Rattus norvegicus [10] = test: Antidiabetic activity in high fat diet/streptozotocin induced diabetic male Albino rat model assessed as decrease in ALT level at 2 mg/kg, po using self assembled nanoparticle as source of compound administered for 4 weeks by colorimetric assay
Rattus norvegicus [11] = test: Antidiabetic activity in high fat diet/streptozotocin induced diabetic male Albino rat model assessed as decrease in AST level at 2 mg/kg, po using self assembled nanoparticle as source of compound administered for 4 weeks by colorimetric assay
Rattus norvegicus [12] = test: Antidiabetic activity in high fat diet/streptozotocin induced diabetic male Albino rat model assessed as decrease in urea level at 2 mg/kg, po using self assembled nanoparticle as source of compound administered for 4 weeks by colorimetric assay
Rattus norvegicus [13] = test: Antidiabetic activity in high fat diet/streptozotocin induced diabetic male Albino rat model assessed as decrease in CAT level in serum at 2 mg/kg, po using self assembled nanoparticle as source of compound administered for 4 weeks by ELISA analysis
Rattus norvegicus [14] = test: Antidiabetic activity in high fat diet/streptozotocin induced diabetic male Albino rat model assessed as decrease in CAT level in serum at 2 mg/kg, po administered for 4 weeks by ELISA analysis
Rattus norvegicus [15] = test: Antidiabetic activity in high fat diet/streptozotocin induced diabetic male Albino rat model assessed as effect on GSH level in serum at 2 mg/kg, po administered for 4 weeks by ELISA analysis
Rattus norvegicus [16] = test: Antidiabetic activity in high fat diet/streptozotocin induced diabetic male Albino rat model assessed as effect on GSH level at 2 mg/kg, po using self assembled nanoparticle as source of compound administered for 4 weeks by ELISA analysis
Rattus norvegicus [17] = test: Antidiabetic activity in high fat diet/streptozotocin induced diabetic male Albino rat model assessed as effect on SOD level in serum at 2 mg/kg, po administered for 4 weeks by ELISA analysis
Rattus norvegicus [18] = test: Antidiabetic activity in high fat diet/streptozotocin induced diabetic male Albino rat model assessed as effect on SOD level in serum at 2 mg/kg, po using self assembled nanoparticle as source of compound administered for 4 weeks by ELISA analysis
Rattus norvegicus [19] = test: Antidiabetic activity in high fat diet/streptozotocin induced diabetic male Albino rat model assessed as effect on MDA level in serum at 2 mg/kg, po administered for 4 weeks by ELISA analysis
Rattus norvegicus [20] = test: Antidiabetic activity in high fat diet/streptozotocin induced diabetic male Albino rat model assessed as effect on MDA level in serum at 2 mg/kg, po using self assembled nanoparticle as source of compound administered for 4 weeks by ELISA analysis
Rattus norvegicus [21] = test: Antiinflammatory activity in high fat diet/streptozotocin induced diabetic male Albino rat model assessed as reduction in TNF-alpha level in serum at 2 mg/kg, po using self assembled nanoparticle as source of compound administered for 4 weeks by ELISA analysis
Rattus norvegicus [22] = test: Antiinflammatory activity in high fat diet/streptozotocin induced diabetic male Albino rat model assessed as reduction in IL-1beta level in serum at 2 mg/kg, po using self assembled nanoparticle as source of compound administered for 4 weeks by ELISA analysis
Rattus norvegicus [23] = test: Antiinflammatory activity in high fat diet/streptozotocin induced diabetic male Albino rat model assessed as reduction in IL-6 level in serum at 2 mg/kg, po using self assembled nanoparticle as source of compound administered for 4 weeks by ELISA analysis
Rattus norvegicus [24] = test: Antiinflammatory activity in high fat diet/streptozotocin induced diabetic male Albino rat model assessed as reduction in leptin level in adipose tissue at 2 mg/kg, po using self assembled nanoparticle as source of compound administered for 4 weeks by ELISA analysis
Rattus norvegicus [25] = test: Antiinflammatory activity in high fat diet/streptozotocin induced diabetic male Albino rat model assessed as reduction in leptin level in adipose tissue at 2 mg/kg, po administered for 4 weeks by ELISA analysis
Rattus norvegicus [26] = test: Antiinflammatory activity in high fat diet/streptozotocin induced diabetic male Albino rat model assessed as reduction in adiponectin level in adipose tissue at 2 mg/kg, po using self assembled nanoparticle as source of compound administered for 4 weeks by ELISA analysis
Rattus norvegicus [27] = test: Antiinflammatory activity in high fat diet/streptozotocin induced diabetic male Albino rat model assessed as reduction in adiponectin level in adipose tissue at 2 mg/kg, po administered for 4 weeks by ELISA analysis
Rattus norvegicus [28] = test: Antiinflammatory activity in high fat diet/streptozotocin induced diabetic male Albino rat model assessed as reduction in leptin expression in adipose tissue at 2 mg/kg, po administered for 4 weeks
Rattus norvegicus [29] = test: Antiinflammatory activity in high fat diet/streptozotocin induced diabetic male Albino rat model assessed as reduction in adiponectin expression in adipose tissue at 2 mg/kg, po administered for 4 weeks
Rattus norvegicus [30] = test: Antiinflammatory activity in high fat diet/streptozotocin induced diabetic male Albino rat model assessed as reduction in leptin expression in adipose tissue at 2 mg/kg, po using self assembled nanoparticle as source of compound administered for 4 weeks
Rattus norvegicus [31] = test: Antiinflammatory activity in high fat diet/streptozotocin induced diabetic male Albino rat model assessed as reduction in adiponectin expression in adipose tissue at 2 mg/kg, po using self assembled nanoparticle as source of compound administered for 4 weeks
Rattus norvegicus [32] = test: Antidiabetic activity in high fat diet/streptozotocin induced diabetic male Albino rat model assessed as restoration of renal cortical architecture in kidney at 2 mg/kg, po using self assembled nanoparticle as source of compound administered for 4 weeks by microscopic analysis
Rattus norvegicus [33] = test: Antidiabetic activity in high fat diet/streptozotocin induced diabetic male Albino rat model assessed as restoration of renal cortical architecture in kidney at 2 mg/kg, po administered for 4 weeks by microscopic analysis
Rattus norvegicus [34] = test: Antidiabetic activity in high fat diet/streptozotocin induced diabetic male Albino rat model assessed as decrease in kidney damage score at 2 mg/kg, po using self assembled nanoparticle as source of compound administered for 4 weeks by microscopic analysis
Rattus norvegicus [35] = test: Antidiabetic activity in high fat diet/streptozotocin induced diabetic male Albino rat model assessed as decrease in kidney damage score at 2 mg/kg, po administered for 4 weeks by microscopic analysis
Rattus norvegicus [36] = test: Antidiabetic activity in high fat diet/streptozotocin induced diabetic male Albino rat model assessed as decrease in adipocyte diameter at 2 mg/kg, po using self assembled nanoparticle as source of compound administered for 4 weeks
Rattus norvegicus [37] = test: Antidiabetic activity in high fat diet/streptozotocin induced diabetic male Albino rat model assessed as decrease in adipocyte diameter at 2 mg/kg, po administered for 4 weeks

Measured: Activity

N#CC1=CC(=O)N(c2ccc(S(=O)(=O)Nc3ncccn3)cc2)C1=O
active: Rattus norvegicus [1] | Rattus norvegicus [2] | Rattus norvegicus [3] | Rattus norvegicus [4] | Rattus norvegicus [5] | Rattus norvegicus [6] | Rattus norvegicus [7] | Rattus norvegicus [8] | Rattus norvegicus [9]

CN1CCN(CC(=O)Nc2ccc(S(=O)(=O)Nc3ncccn3)cc2)CC1
active: all assays above

O=S(=O)(Nc1ncccn1)c1ccc(NCc2nc3ccccc3[nH]2)cc1
active: Rattus norvegicus [1] | Rattus norvegicus [2] | Rattus norvegicus [3] | Rattus norvegicus [4] | Rattus norvegicus [5] | Rattus norvegicus [6] | Rattus norvegicus [7] | Rattus norvegicus [8] | Rattus norvegicus [9]

CCN1C(=O)CS/C1=N\c1ccc(S(=O)(=O)Nc2ncccn2)cc1
active: Rattus norvegicus [1] | Rattus norvegicus [2] | Rattus norvegicus [3] | Rattus norvegicus [4] | Rattus norvegicus [5] | Rattus norvegicus [6] | Rattus norvegicus [7] | Rattus norvegicus [8] | Rattus norvegicus [9]
